# Data published in PubChem BioAssay (Tox21).
# The chains behind the UniProt entries cited, without tags or fusion partners.
# UniProt P10275, whole entry: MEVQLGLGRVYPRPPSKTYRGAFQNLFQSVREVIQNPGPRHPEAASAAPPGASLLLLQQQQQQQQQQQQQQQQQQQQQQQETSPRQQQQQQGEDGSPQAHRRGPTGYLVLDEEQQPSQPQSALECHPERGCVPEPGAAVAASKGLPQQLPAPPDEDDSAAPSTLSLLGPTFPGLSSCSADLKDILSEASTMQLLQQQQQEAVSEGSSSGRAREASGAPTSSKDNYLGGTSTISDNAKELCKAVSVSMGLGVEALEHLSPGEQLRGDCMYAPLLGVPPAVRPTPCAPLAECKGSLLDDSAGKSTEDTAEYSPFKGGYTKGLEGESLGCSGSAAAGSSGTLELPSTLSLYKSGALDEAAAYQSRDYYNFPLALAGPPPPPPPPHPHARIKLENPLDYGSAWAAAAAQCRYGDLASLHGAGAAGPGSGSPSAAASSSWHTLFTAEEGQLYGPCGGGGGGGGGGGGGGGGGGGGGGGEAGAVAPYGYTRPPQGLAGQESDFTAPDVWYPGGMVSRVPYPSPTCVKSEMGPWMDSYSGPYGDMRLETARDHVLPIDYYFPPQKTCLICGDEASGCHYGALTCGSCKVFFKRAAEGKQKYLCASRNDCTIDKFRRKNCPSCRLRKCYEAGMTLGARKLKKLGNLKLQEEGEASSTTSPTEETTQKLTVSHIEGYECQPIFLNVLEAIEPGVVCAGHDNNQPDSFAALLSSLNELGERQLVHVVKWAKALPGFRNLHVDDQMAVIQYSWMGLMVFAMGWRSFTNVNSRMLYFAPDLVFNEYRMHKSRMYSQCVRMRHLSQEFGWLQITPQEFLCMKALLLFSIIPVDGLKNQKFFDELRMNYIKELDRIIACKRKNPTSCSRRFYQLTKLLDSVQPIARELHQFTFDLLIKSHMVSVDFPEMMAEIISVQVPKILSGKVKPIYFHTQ
# UniProt P03372, whole entry: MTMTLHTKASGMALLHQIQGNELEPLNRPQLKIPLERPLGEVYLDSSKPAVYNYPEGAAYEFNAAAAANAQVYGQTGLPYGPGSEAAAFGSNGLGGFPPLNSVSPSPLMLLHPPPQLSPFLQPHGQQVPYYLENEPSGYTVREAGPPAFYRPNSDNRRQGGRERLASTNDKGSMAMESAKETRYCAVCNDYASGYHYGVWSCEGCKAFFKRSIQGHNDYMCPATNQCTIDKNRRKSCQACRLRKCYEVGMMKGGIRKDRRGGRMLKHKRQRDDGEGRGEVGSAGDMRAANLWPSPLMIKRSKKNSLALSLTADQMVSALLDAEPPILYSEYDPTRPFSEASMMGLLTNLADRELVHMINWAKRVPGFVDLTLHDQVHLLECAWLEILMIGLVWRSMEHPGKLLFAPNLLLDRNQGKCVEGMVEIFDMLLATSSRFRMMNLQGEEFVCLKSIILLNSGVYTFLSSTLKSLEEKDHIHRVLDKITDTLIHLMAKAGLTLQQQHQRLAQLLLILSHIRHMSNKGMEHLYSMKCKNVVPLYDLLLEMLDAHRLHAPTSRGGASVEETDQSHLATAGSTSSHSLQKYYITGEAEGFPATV
# UniProt P16473, whole entry: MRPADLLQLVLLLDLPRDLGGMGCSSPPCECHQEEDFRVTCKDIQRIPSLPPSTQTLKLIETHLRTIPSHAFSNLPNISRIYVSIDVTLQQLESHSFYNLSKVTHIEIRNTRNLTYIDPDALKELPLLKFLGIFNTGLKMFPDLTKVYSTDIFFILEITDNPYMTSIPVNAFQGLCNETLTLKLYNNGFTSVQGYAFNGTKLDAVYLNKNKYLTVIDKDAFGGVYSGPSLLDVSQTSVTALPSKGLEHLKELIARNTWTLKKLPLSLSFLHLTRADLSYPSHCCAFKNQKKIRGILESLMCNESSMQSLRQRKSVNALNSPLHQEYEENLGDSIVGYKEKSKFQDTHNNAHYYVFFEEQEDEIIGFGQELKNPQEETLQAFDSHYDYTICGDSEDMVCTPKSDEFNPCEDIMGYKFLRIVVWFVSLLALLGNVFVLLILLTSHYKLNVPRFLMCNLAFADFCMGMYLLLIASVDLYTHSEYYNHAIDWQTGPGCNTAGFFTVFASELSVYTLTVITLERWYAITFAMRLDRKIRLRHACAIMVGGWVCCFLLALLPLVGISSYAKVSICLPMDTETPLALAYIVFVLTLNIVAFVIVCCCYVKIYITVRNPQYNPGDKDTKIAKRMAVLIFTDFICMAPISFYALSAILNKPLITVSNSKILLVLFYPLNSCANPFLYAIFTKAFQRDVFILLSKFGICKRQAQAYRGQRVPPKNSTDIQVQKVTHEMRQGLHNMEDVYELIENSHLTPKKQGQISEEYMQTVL
# UniProt P06401, whole entry: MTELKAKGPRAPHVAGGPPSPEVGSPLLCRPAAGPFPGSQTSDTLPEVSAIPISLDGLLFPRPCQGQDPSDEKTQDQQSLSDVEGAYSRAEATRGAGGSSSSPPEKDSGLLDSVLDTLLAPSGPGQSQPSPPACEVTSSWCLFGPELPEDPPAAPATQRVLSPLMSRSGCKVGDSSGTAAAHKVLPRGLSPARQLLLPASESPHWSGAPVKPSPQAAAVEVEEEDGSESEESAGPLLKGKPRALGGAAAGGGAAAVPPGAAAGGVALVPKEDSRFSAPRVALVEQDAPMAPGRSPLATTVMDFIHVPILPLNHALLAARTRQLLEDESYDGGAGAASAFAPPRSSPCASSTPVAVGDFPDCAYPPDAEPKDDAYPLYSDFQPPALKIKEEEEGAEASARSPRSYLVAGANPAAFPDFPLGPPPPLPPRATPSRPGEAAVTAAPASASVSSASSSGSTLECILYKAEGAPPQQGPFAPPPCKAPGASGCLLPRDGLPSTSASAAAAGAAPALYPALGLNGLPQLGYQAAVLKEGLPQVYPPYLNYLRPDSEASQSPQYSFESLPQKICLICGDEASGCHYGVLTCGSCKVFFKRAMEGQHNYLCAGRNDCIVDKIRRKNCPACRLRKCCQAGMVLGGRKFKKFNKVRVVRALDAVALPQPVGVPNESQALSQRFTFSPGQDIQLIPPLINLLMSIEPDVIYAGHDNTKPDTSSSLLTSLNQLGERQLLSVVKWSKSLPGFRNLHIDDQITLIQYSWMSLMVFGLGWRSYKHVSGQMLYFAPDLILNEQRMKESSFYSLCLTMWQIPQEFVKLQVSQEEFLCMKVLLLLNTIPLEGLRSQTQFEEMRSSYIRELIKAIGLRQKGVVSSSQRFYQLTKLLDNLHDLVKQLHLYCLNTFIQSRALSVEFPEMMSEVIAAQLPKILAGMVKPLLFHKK
# “And” between values parts separate entries of the source, which are not always exact repeats. Equal values may be shown once. The list shows a part of the results, in another mix than the full data. Inconclusive results are not listed. The source made the active and inactive calls. Unless noted, calls come from the whole dose curve; as a rule, active = well fitted curve in the direction sought with a large enough effect in the repeat runs; inconclusive = weak or mixed curves; inactive = no such curve, though single readings can be large; an effect the other way counts as inactive or inconclusive.
# Legend:
# [1] = qHTS assay to identify small molecule agonists of the estrogen receptor beta (ER-beta) signaling pathway - cell viability counter screen (AID 1259380); note: nearly all actives have a fitted effect of over 30% in size
# Outline: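 Steps: plate ER-beta-UAS-bla HEK293T cells, rest 6 hr; add compounds in DMSO; incubate 16 hr at 37C, 5% CO2; add FRET substrate 2 hr; add CellTiter-Glo, wait 30 min at room temperature; read luminescence.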
# [2] = target: Androgen receptor (Homo sapiens) (UniProt P10275); assay: qHTS assay to identify small molecule agonists of the androgen receptor (AR) signaling pathway in the presence of an antagonist (AID 1259381; calls by dose curve; note: nearly all actives have a fitted effect of over 15% in size)
# [3] = qHTS assay to identify small molecule antagonists of the estrogen receptor beta (ER-beta) signaling pathway - cell viability counter screen (AID 1259382); settings: ER-beta-UAS-bla HEK293T viability, CellTiter-Glo luminescence, 16 h;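 note: HEK293T cells carrying ER-beta-UAS-bla reporter stimulated with estradiol; nearly all actives have a fitted effect of over 55% in size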
# Outline: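 Viability is scored by CellTiter-Glo luminescence (30 min, room temperature) in ER-beta-UAS-bla HEK293T wells already read for reporter fluorescence. Compound exposure lasts 16 hr at 37C alongside 1nM 17-beta-estradiol in charcoal-stripped serum medium.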
# [4] = target: Estrogen receptor (Homo sapiens) (UniProt P03372); assay: qHTS assay to identify small molecule agonists of the estrogen receptor alpha (ER-alpha) signaling pathway in the presence of an antagonist (AID 1259383; calls by dose curve; note: top concentration of the series differs between compounds; nearly all actives have a fitted effect of over 15% in size); settings: VM7Luc4E2 cells, ERE-luciferase, +ICI-182,780, 22 h; at 92.4 µM (top of the series) unless noted
# [5] = qHTS assay to identify small molecule agonists or antagonists of the thyroid stimulating hormone receptor (TSHR) signaling pathway - wild type cell line counter screen (AID 1259384; calls by dose curve); settings: HEK293 wild type, cAMP HTRF counter-screen, hits give high values
# Outline: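 Wild-type HEK293 cells were plated 18 h at 37 C/5% CO2, pin-dosed with compound plus Ro20-1724 medium, held 30 min at room temperature, then given cAMP-d2 and anti-cAMP-cryptate; fluorescence was read after 1 h. Fifteen concentrations, triplicate.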
# [6] = target: Thyrotropin receptor (Homo sapiens) (UniProt P16473); assay: qHTS assay to identify small molecule antagonists of the thyroid stimulating hormone receptor (TSHR) signaling pathway (AID 1259385; calls by dose curve; note: nearly all actives have a fitted effect of over 20% in size); settings: TSHR-HEK293 cAMP HTRF, TSH-stimulated antagonist mode
# [7] = qHTS assay to identify small molecule agonists of the estrogen receptor alpha (ER-alpha) signaling pathway in the presence of an antagonist - cell viability counter screen (AID 1259386); settings: VM7Luc4E2 viability, CellTiter-Fluor fluorescence, 22 h;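 note: cells exposed to compounds for 22 h at 37 °C before the viability read; nearly all actives have a fitted effect of over 30% in size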
# Outline: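 In this counter screen, compound effects on VM7Luc4E2 viability were tested in the presence of the antagonist ICI-182,780 at 10.0nM final. Compounds were dosed at 15 concentrations, exposure lasted 22hr, and the CellTiter-Fluor signal was read.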
# [8] = target: Progesterone receptor (Homo sapiens) (UniProt P06401); assay: qHTS assay to identify small molecule agonists of the progesterone receptor (PR) signaling pathway (AID 1346784; calls by dose curve; note: nearly all actives have a fitted effect of over 30% in size; note: potency is the fitted concentration of half-maximal effect)
# Outline: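 Seed PR-UAS-bla HEK 293T cells (2% charcoal-stripped FBS), incubate 6 hr at 37C; add compounds in DMSO, 16 hr at 37C; add LiveBLAzer B/G substrate, 2 hr RT; read fluorescence intensity.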
# [9] = target: Progesterone receptor (Homo sapiens) (UniProt P06401); assay: qHTS assay to identify small molecule antagonists of the progesterone receptor (PR) signaling pathway (AID 1346795; active = well fitted inhibition curve with a large enough effect in the signal ratio in the repeat runs, not every such curve was filed as active; the % refers to the signal ratio)
# Outline: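 Screening used a GripTite HEK293T line with PR-responsive UAS-beta-lactamase. Cells were challenged with compound in the presence of 1 nM R5020 final for 16 hr at 37C; B/G FRET substrate, 2 hr room temperature, fluorescence.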
# [10] = qHTS assay to identify small molecule antagonists of the progesterone receptor (PR) signaling pathway - cell viability counter screen (AID 1346798); settings: PR-UAS-bla HEK293T viability, CellTiter-Glo luminescence, 16 h; note: nearly all actives have a fitted effect of over 50% in size
# Outline: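 Measures cytotoxicity in parallel with the PR antagonist reporter read: HEK293T PR-UAS-bla cells get compound and R5020 for 16 hr, and remaining viable cells are quantified by CellTiter-Glo luminescence.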
# [11] = at 92.4 µM (top of the series) unless noted
# % is set by controls: 0 for no effect and ±100 for the full control effect.
compound,measurement,setting,value
O=[N+]([O-])OCC(CO[N+](=O)[O-])(CO[N+](=O)[O-])CO[N+](=O)[O-],Potency,[1],inactive
same,Potency,[2],inactive
same,"activity change, negative = cytotoxicity",[3]; [11],inactive: 13.7%
same,activation,[4],inactive: 0.975%
same,cAMP activity change,[5]; [11],inactive: -3.4%
same,"activity change, negative = inhibition",[6]; at 92.4 µM (top of the series),inactive: 4.2%
same,"activity change, negative = cytotoxicity",[7]; at 92.4 µM (top of the series),inactive: 0.537%
same,Potency,[8],inactive
same,Potency,[9],inactive
same,"activity change, negative = cytotoxicity",[10]; at 92.4 µM (top of the series),inactive: -1.16%
CP(=O)(O)OCCC[Si](O)(O)O,Potency,[1],inactive
same,"activity change, negative = cytotoxicity",[3]; [11],inactive: 9.4%
same,activation,[4],inactive: -0.965%
same,cAMP activity change,[5]; [11],inactive: -1.21%
same,"activity change, negative = cytotoxicity",[7]; at 92.4 µM (top of the series),inactive: -3.22%
same,Potency,[8],inactive
same,Potency,[9],inactive
Nc1cc([N+](=O)[O-])cc([N+](=O)[O-])c1O,"activity change, negative = cytotoxicity",[3]; [11],inactive: -6.82%
same,activation,[4],inactive: -2.42%
same,Potency,[8],inactive
O=[N+]([O-])c1cccc([N+](=O)[O-])c1,Potency,[1],inactive
same,"activity change, negative = cytotoxicity",[3]; [11],inactive: -1.1%
same,activation,[4],inactive: 1.79%
same,cAMP activity change,[5]; [11],inactive: -6.2%
same,Potency,[8],active: 3.19 µM
CCN(CC)CCCl,Potency,[2],inactive
same,"activity change, negative = cytotoxicity",[3]; [11],inactive: -15.6%
same,activation,[4],inactive: -0.772%
same,cAMP activity change,[5]; [11],inactive: -0.839%
same,"activity change, negative = cytotoxicity",[7]; at 92.4 µM (top of the series),inactive: -15.3%
same,Potency,[8],inactive
same,Potency,[9],inactive
same,"activity change, negative = cytotoxicity",[10]; at 92.4 µM (top of the series),inactive: -9.34%
Cc1ccc([N+](=O)[O-])cc1[N+](=O)[O-],Potency,[1],inactive
same,"activity change, negative = cytotoxicity",[3]; [11],inactive: -4.52% and inactive: 0.093%
same,activation,[4],inactive: -2.29% and inactive: 0.864%
same,cAMP activity change,[5]; [11],inactive: 2.64%
same,"activity change, negative = cytotoxicity",[7]; at 92.4 µM (top of the series),inactive: -0.273% and inactive: 3.15%
same,Potency,[8],inactive
same,Potency,[9],inactive
same,"activity change, negative = cytotoxicity",[10]; at 92.4 µM (top of the series),inactive: 0.411%
CC(C)OP(C)(=O)OC(C)C,Potency,[1],inactive
same,"activity change, negative = cytotoxicity",[3]; [11],inactive: -12.4% and inactive: 1.47%
same,activation,[4],inactive: 6.15% and inactive: -1.65%
same,cAMP activity change,[5]; [11],inactive: -0.121% and inactive: -2.48%
same,"activity change, negative = inhibition",[6]; at 92.4 µM (top of the series),inactive: -1.77% and inactive: -0.147%
same,"activity change, negative = cytotoxicity",[7]; at 92.4 µM (top of the series),inactive: 2.18%
same,Potency,[8],inactive
same,Potency,[9],inactive
same,"activity change, negative = cytotoxicity",[10]; at 92.4 µM (top of the series),inactive: 15.1%
CC(C)N(CCO)C(C)C,Potency,[1],inactive
same,Potency,[2],inactive
same,"activity change, negative = cytotoxicity",[3]; [11],inactive: -5.9%
same,cAMP activity change,[5]; [11],inactive: 4.74%
same,"activity change, negative = inhibition",[6]; at 92.4 µM (top of the series),inactive: -0.168%
same,"activity change, negative = cytotoxicity",[7]; at 92.4 µM (top of the series),inactive: 6.14%
same,Potency,[9],inactive
same,"activity change, negative = cytotoxicity",[10]; at 92.4 µM (top of the series),inactive: -4.33%
N#CBr,Potency,[1],inactive
same,Potency,[2],inactive
same,"activity change, negative = cytotoxicity",[3]; [11],inactive: -0.604%
same,activation,[4],inactive: 0.0604%
same,cAMP activity change,[5]; [11],inactive: 4.34%
same,"activity change, negative = inhibition",[6]; at 92.4 µM (top of the series),inactive: 2.75%
same,"activity change, negative = cytotoxicity",[7]; at 92.4 µM (top of the series),inactive: -0.854%
same,Potency,[8],inactive
same,Potency,[9],inactive
same,"activity change, negative = cytotoxicity",[10]; at 92.4 µM (top of the series),inactive: 13.8%
[NH4+].[O-][Cl+3]([O-])([O-])[O-],Potency,[1],inactive
same,"activity change, negative = cytotoxicity",[3]; [11],inactive: 9.19% and inactive: 3.33%
same,"activity change, negative = cytotoxicity",[7]; at 92.4 µM (top of the series),inactive: -2.02% and inactive: 0.207%
same,Potency,[8],inactive
same,Potency,[9],inactive
same,"activity change, negative = cytotoxicity",[10]; at 92.4 µM (top of the series),inactive: -5.76% and inactive: -15.5%
OCCSCCO,Potency,[1],inactive
same,"activity change, negative = cytotoxicity",[3]; at 42.5 µM (top of the series),inactive: 5.37%
same,"activity change, negative = cytotoxicity",[3]; at 92.4 µM (top of the series),inactive: -14.1%
same,cAMP activity change,[5]; at 42.5 µM (top of the series),inactive: -0.38%
same,cAMP activity change,[5]; at 92.4 µM (top of the series),inactive: 1.32%
same,"activity change, negative = inhibition",[6]; at 42.5 µM (top of the series),inactive: -1.96%
same,"activity change, negative = inhibition",[6]; at 92.4 µM (top of the series),inactive: -1.3%
same,"activity change, negative = cytotoxicity",[7]; at 42.5 µM (top of the series),inactive: 3.84%
same,"activity change, negative = cytotoxicity",[7]; at 92.4 µM (top of the series),inactive: 0.923%
same,Potency,[8],inactive
same,"activity change, negative = cytotoxicity",[10]; at 42.5 µM (top of the series),inactive: 7.63%
same,"activity change, negative = cytotoxicity",[10]; at 92.4 µM (top of the series),inactive: 3.61%
